The chains behind the UniProt entries cited, without tags or fusion partners.
UniProt P08183, whole entry: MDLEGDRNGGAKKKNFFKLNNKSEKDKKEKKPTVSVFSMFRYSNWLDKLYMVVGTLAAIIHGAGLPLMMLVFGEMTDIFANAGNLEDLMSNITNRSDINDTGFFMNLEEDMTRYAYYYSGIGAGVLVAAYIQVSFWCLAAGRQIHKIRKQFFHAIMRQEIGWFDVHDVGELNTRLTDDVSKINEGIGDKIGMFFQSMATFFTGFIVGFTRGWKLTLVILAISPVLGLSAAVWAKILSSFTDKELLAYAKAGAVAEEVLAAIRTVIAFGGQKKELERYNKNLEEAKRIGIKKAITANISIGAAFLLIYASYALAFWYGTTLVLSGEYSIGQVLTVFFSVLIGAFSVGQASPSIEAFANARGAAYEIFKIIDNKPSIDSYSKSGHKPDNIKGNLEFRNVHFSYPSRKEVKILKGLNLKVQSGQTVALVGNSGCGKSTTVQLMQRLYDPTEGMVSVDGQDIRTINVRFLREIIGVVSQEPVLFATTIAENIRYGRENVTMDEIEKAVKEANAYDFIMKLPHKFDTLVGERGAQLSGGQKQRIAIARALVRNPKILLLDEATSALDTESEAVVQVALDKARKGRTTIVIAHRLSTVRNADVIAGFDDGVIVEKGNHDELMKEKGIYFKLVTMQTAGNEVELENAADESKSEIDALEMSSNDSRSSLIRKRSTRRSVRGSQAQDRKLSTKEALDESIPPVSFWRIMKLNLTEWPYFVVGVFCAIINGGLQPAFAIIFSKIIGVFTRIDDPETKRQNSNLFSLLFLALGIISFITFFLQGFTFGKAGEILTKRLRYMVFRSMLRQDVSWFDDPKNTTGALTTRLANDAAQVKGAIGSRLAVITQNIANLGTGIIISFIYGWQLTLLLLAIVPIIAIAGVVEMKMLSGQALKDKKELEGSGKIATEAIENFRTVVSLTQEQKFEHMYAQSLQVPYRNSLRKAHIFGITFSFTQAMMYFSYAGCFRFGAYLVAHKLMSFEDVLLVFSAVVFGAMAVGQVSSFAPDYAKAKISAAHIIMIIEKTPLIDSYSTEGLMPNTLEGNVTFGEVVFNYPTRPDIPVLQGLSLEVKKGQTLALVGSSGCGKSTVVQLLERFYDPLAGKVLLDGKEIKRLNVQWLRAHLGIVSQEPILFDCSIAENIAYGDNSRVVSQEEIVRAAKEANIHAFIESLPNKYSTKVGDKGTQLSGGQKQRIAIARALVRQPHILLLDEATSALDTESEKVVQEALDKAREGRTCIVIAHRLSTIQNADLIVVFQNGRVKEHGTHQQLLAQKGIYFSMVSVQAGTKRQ

According to US20260382572A1, “TREATMENT OF FRONTOTEMPORAL DEMENTIA OR FRONTOTEMPORAL LOBAR DEMENTIA” (published 2026):

Experiments:
[1] = system: TNFα mRNA in BV2 cells; assay: TNFα mRNA in LPS-exposed BV2 cells (qRT-PCR); conditions: LPS 24 h; 10 and 30 μM
Method: FIG. 1. Compound 1 reduces the inflammatory response against LPS in vitro. (A) Nitric oxide (NO) production in BV2 cells detected by DAF 24 h after LPS exposure and normalized by cell viability measured by MTT (n=9). (B) qRT-PCR of TNFα (n=9) in BV2 cells after 24 h LPS exposure. Sulforaphane (Sfn) was used as a positive control.
Example 2.2. In vitro treatment with Compound 1 has anti-inflammatory effects in microglial derived cells.

[2] = system: IL-1β and TNFα mRNAs in mouse brain; assay: LPS in vivo model: proinflammatory cytokine mRNA in mouse brain (qRT-PCR); conditions: 20 mg·kg^−1 i.p. daily 4 days, 4 h and 24 h after LPS 0.5 mg·kg^−1
Method: FIG. 2. Compound 1 decreases the inflammatory process 4 and 24 hours after LPS administration in vivo. Compound 1 (20 mg·kg^−1) daily was injected i.p. four days before the i.p. LPS (0.5 mg·kg^−1) administration.
The LPS in vivo model was induced, sickness behaviour evaluated (locomotion test and novel object recognition test) and cytokines measured by qPCR as described by [Fernindez-Mendivil, Cristina et al. “Protective role of microglial HO-1 blockade in aging: Implication of iron metabolism.” Redox biology vol. 38 (2021): 101789. doi:10.1016/j.redox.2020.101789]. The panel of mouse cytokines, chemokines, and growth factors were measured by Luminex xMAP technology for multiplexed quantification at Evetechnologies (https://www.evetechnologies.com/)
Example 2.3.1. Treatment with Compound 1 reduces LPS-induced cytokine expression and release in mouse brain. Mice were treated i.p. with a daily dose of 20 mg·kg^−1 of Compound 1 for 4 consecutive days. On the last day, LPS (0.5 mg·kg^−1) was injected i.p. one h after the compound. Thereafter, behavioural, and biochemical outcomes were analysed at different time points.

[3] = system: hyperphosphorylated tau in primary cultures of neurons expressing human tau with P301L mutation; assay: Hyperphosphorylated tau (AT8) in primary neuronal cultures treated with AAV-hTauP301L; conditions: added every other day for 8 days, compound 1 at 30 μM
Description: FIG. 6. Compound 1 reduces hyperphosphorylated tau species and tau seeding in vitro. Compound 1 reduces hyperphosphorylated tau levels (AT8) in primary neuronal cultures of mice after 8 days of AVV-hTauP301L treatment. Dimethyl fumarate was used as a positive control (DMF). (A) Representative images, AT8 is shown in green and Map2, marker of neurons, is shown in white. […] Compound 1 reduced tau seeding in HEK-293 tau FRET biosensor measured by flow cytometer (C). Tg4510 mouse brain homogenate was used as aggregant stimuli. […] Data represent mean±SEM.
Immunofluorescence labelling in in vitro and in vivo samples was performed as described in [Luengo, Enrique et al. “Implication of type 4 NADPH oxidase (NOX4) in tauopathy.” Redox biology vol. 49 (2022): 102210. doi:10.1016/j.redox.2021.102210].
Example 2.4. Compound 1 reduces levels of pathological hyperphosphorylated tau in primary cultures of neurons expressing human tau protein with P301L mutation. At day 10 after culture, neurons were treated with PBS or AAV-hTauP301L, and thereafter compound 1 (30 μM) was added every other day for 8 days. At the end of the experiment (day 18), neurons were fixed in 2% paraformaldehyde (Sigma-Aldrich) for 15 minutes. Thereafter, hyperphosphorylated tau levels were evaluated by immunofluorescence using AT8 antibody (FIG. 6A). […]

[4] = system: Salmonella typhimurium strains, TA98, TA100, TA1535 and TA1537; assay: Ames fluctuation test; conditions: 10^−4 to 6.10^−7 M; with and without rat liver S9
Method: Example 3.1. ADME-Tox: Genetic Toxicity. The Ames fluctuation test is a widely used bacterial assay for the identification of compounds that can produce gene mutations. Compound 1 was assayed between 10^−4 and 6.10^−7 M in four Salmonella typhimurium strains, TA98, TA100, TA1535 and TA1537, with and without metabolic activation by rat liver S9 (Eurofins Discovery).

[5] = molecular target: P-glycoprotein efflux transporter (Homo sapiens, UniProt P08183); assay: Caco-2 efflux transporter substrate panel: P-glycoprotein (verapamil)
Method: Example 3.2. ADME-Tox: Caco-2 Efflux Transporter Substrate Panel. The permeability of Compound 1 in the Caco-2 cell line was determined in the AB and BA directions, in the absence or presence of verapamil (a Pgp-specific inhibitor) or Ko143 (a selective inhibitor of the ATP-binding cassette subfamily B, ABCB) (Eurofins Discovery).

COc1ccc2c(c1)CC(c1c[nH]c3ccc(OC)cc13)N2 (centres unmarked)
TNF-α mRNA [1]: reduced the proinflammatory cytokine TNF-α mRNA in a concentration-dependent manner
IL-1β mRNA [2]: reduced
TNFα mRNA [2]: reduced
AT8 intensity levels [3]: reduced AT8 intensity levels
cytotoxicity in Ames fluctuation test [4]: did not exhibit cytotoxicity
genotoxicity (Ames fluctuation test) [4]: not genotoxic
P-glycoprotein efflux transporter substrate [5]: not a substrate
permeability in the presence of verapamil ([5]; both directions): not altered
